From publication PMC9830440, “Simplified one-pot ^18F-labeling of biomolecules with in situ generated fluorothiophosphate synthons in high molar activity” (Theranostics, 2023)

Columns and labels:
[1] = In vivo metabolic stabilities of 18F-labeled FTPs (blood and urine, radio-HPLC); conditions: ICR mice, i.v. 18.50 MBq, blood, 60 minutes after injection
Experimental: 9.6 Enzymatic stabilit ies of 18F-labeled FTPs in vitro
[18F]FTP-Tyr (0.1-0.3 MBq, 10 μL) was dissolved in 50 μL reaction buffer (10.0 mM
Tris-HCl (pH = 8.0)), 5.0 mM MgCl 2, 0.1 M KCl ，0.02% Triton X-100, 1 mM 2-
mercaptoethanol, 0.1mg mL-1 BSA). 5 μL beyoAP alkaline phosphatase was added to
the solution, then incubated at 37 ℃ after 30, 60, 120 min. 50 μL acetonitrile was
added to the mixture, and centrifuged at 16, 543 × g for 8 min. RCPs of the filtrate
was analyzed by radio-HPLC.
Figure S44.Enzymatic stabilities of [ 18F]FTP-Tyr.
9.7 In vivometabolic stabilities of 18F-labeled FTPs
In vivo metabolic stabilities of 18F-labeled FTPs in normal ICR mice were examined.
Normal ICR mice were intravenously injected with [18F]1, [ 18F]2, or [ 18F]3 (18.50
MBq in 100 µL saline), respectively. Each mouse was sacrificed at indicated time
with blood and urine collected. Each blood sample was immediately centrifuged at
10000 rpm for 5 min to obtain the serum. The serum was then treated with acetonitrile
and centrifuged at 10000 rpm for 8 min to provide the supernatant. The supernatant
was collected and passed through a 0.22 µm Millipore filter. Each urine sample was
diluted with 100 µL water and passed through a 0.22 µm millipore filter. RCPs of 18F-
labeled FTPs in all samples were analyzed by radio-HPLC.
[18F]1 and [ 18F]2 have better metabolic stability than [ 18F]3 in vivo, and 80% of them […]

[2] = 60 min dynamic whole-body microPET imaging of 18F-labeled FTPs (bone uptake / defluorination); conditions: microPET imaging evaluation, n = 3, 0-60 min post-injection
Experimental: Figure 1 Analysis of rapid kinetics and condition scopes of the ^18F-labeling of FTPs. (A) Reaction scheme showing the fluorination of FTPs. (B) Reaction rate constant (k) values that were predicted by density functional calculations at B3LYP/6-311+G* level of theory (at 298 K) and k values that were measured at 298 K. The pseudo-first order initial rate constant (k´) of [^18F]1 (C) and [^18F]2 (E) were determinated from the kinetic curves reflecting the change in ln [1/(1 - RCC)] in DMF at different temperatures. The Ea of [^18F]1 (D) and [^18F]2 (F) were determinated from Arrhenius plots of ln k against 1/T. (G) RCCs of [^18F]1 and [^18F]2 at different time periods from 10 to 300 sec in acetonitrile at RT. RCCs of [^18F]1 (H) and [^18F]2 (I) at different temperatures and water contents (The solvents are mixtures of acetonitrile and water, v/v. “0%” means no additional water is added.) post 30 sec. (J) RCCs of [^18F]1 and [^18F]2 with different precursor loads in acetonitrile post 30 sec at RT. (K) RCCs of [^18F]1 and [^18F]2 in different solvents post 30 sec at RT. (L) The time-bone uptake curves of [^18F]1, [^18F]2, [^18F]3, and [^18F]4 during 0-60 min post-injection. Bone uptake was measured with microPET in healthy mice (n = 3).
9.8 In vivostabilities of 18F-labeled FTPs during dynamic PET imaging […]
at 37 °C and respiration rate was monitored and kept at 40–60 beat per minute (BPM) […]

[3] = Lipophilicity (Log D), 1-octanol/PBS; type: physicochemical; conditions: shake-flask, pre-saturated 1-octanol/PBS (0.05 mol L-1, pH = 7.4), 1.11 MBq, shaking 3 min, gamma counter, triplicate, mean ± SD
[4] = in vivo biodistribution of 18F-labeled FTPs at 120 min post injection; conditions: i.v. tail vein, 2 h post injection, gamma counter
Excerpt: improved after oxidized, and that anions also contribute to its stability.
When the anion was occupied, [ 18F]4 was slowly defluorinated in the body, but this
defluorination seemed to be acceptable, with only 3% increase in bone uptake within
10 Biodistribution studies
The in vivo biodistribution of four 18F-labeled FTPs ([18F]1, [ 18F]2, [ 18F]3 and
[18F]FTP-NHS/ [18F]15) were studied in BALB/c male mice (average weight 20 ± 2.0
g) by injecting a solution (in saline, pH = 7) of each compound (100 μL, 10
μCi/mouse, 0.1-0.2 nmol) into the tail vein of the animals. At 120 min post injection,
the animals were sacrificed and the main organs were removed, weighed, and then
counted by a γ-counter. In reference to a standard of the injected solution, results were
expressed as the percentage of the injected dose per gram of wet tissue or organ (%ID
Figure S49. Comparative biodistribution studies at 120 min post injection of [ 18F]1,
(1 picture or pasted object on this page, not shown here)

Substance | fraction remaining in the form of the original drug [1] | extent of defluorination (bone uptake) [2] | Log D [3] | bone uptake [4]
O-(But-3-yn-1-yl) [^18F]phosphorofluoridodithioate | 80% | insignificant | -1.09 ± 0.05 | 0.9-1.1 %ID g^-1
O-(but-3-yn-1-yl) [^18F]phosphorofluoridothioate |  |  | -1.77 ± 0.02 | 
O-phenyl [^18F]phosphorofluoridodithioate | 80% | insignificant |  | 0.9-1.1 %ID g^-1
